Measurements taken from ChEMBL document CHEMBL1125307, “Novel 1,2,4-oxadiazoles and 1,2,4-thiadiazoles as dual 5-lipoxygenase and cyclooxygenase inhibitors” (J Med Chem, 1992).

Target: T1, Polyunsaturated fatty acid 5-lipoxygenase (Rattus norvegicus, UniProt P12527)
T1 sequence (P12527 whole entry): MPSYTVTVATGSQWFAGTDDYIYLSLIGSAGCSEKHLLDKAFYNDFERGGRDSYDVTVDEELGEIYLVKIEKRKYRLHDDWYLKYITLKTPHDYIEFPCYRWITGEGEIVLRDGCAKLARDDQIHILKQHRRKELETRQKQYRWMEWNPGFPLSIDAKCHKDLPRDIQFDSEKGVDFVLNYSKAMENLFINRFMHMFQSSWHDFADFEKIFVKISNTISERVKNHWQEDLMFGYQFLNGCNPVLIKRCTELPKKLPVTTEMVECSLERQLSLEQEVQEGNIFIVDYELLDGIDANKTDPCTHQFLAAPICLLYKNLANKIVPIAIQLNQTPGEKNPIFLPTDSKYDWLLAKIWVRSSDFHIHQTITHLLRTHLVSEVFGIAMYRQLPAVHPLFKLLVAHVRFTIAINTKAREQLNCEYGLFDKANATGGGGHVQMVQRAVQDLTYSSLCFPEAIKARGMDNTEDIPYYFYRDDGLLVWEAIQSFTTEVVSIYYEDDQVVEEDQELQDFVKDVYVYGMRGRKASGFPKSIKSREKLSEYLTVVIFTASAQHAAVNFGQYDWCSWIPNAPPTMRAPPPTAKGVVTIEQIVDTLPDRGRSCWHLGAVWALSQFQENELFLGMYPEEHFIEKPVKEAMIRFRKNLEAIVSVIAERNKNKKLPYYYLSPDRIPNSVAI
Assay: Evaluated in vitro for its inhibitory activity against 5-lipoxygenase
Procedure, shortened: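 RBL-1 cells grown in MEM + 12% FBS, washed in PBS pH 7.4, resuspended at 2×10^6 cells/mL in PBS with 1.0 mM calcium. Preincubated 10 min at room temperature with compound in DMSO, then stimulated with A23187 (5 μM) 7 min at 37 °C; stopped on ice. Supernatant LTB4 by radioimmunoassay.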

IC50: 2300 nM
SMILES: Cc1nc(-c2cc(C(C)(C)C)c(O)c(C(C)(C)C)c2)no1
